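Protocol summary: plate cells (96-well), add compound at 5 concentrations, incubate 48 h, interpolate endpoints linearly. Here, GI50 denotes the concentration required for 50% inhibition of growth. TGI marks complete inhibition of growth.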
Columns and labels:
Assay in all cases: NCI-60 cell line screen, 48 h
COLO 205 colon = test system: COLO 205 colon
NCI-H322M lung = test system: NCI-H322M lung
SNB-19 CNS = test system: SNB-19 CNS
NCI-H23 lung = test system: NCI-H23 lung
K-562 leukemia = test system: K-562 leukemia
A549 NSCLC = test system: A549 NSCLC
HT29 colon = test system: HT29 colon
MOLT-4 leukemia = test system: MOLT-4 leukemia
OVCAR-4 ovarian = test system: OVCAR-4 ovarian
HS 578T breast = test system: HS 578T breast
M14 melanoma = test system: M14 melanoma
OVCAR-3 ovarian = test system: OVCAR-3 ovarian
LOX IMVI melanoma = test system: LOX IMVI melanoma
CCRF-CEM leukemia = test system: CCRF-CEM leukemia
NCI-H226 lung = test system: NCI-H226 lung
MDA-MB-231 breast = test system: MDA-MB-231 breast
SF-268 CNS = test system: SF-268 CNS
SK-OV-3 ovarian = test system: SK-OV-3 ovarian
SF-295 CNS = test system: SF-295 CNS
MDA-MB-435 = test system: MDA-MB-435
HCC-2998 colon = test system: HCC-2998 colon
EKVX NSCLC = test system: EKVX NSCLC
UACC-62 melanoma = test system: UACC-62 melanoma
SW-620 colon = test system: SW-620 colon
BT-549 breast = test system: BT-549 breast
CAKI-1 renal = test system: CAKI-1 renal
PC-3 prostate = test system: PC-3 prostate
SK-MEL-5 melanoma = test system: SK-MEL-5 melanoma
SN12C renal = test system: SN12C renal
KM12 colon = test system: KM12 colon
NCI-H522 lung = test system: NCI-H522 lung
OVCAR-8 ovarian = test system: OVCAR-8 ovarian
U251 CNS = test system: U251 CNS
RPMI-8226 leukemia = test system: RPMI-8226 leukemia
A498 renal = test system: A498 renal
UO-31 renal = test system: UO-31 renal
MDA-N = test system: MDA-N
786-0 renal = test system: 786-0 renal
NCI/ADR-RES ovarian = test system: NCI/ADR-RES ovarian
HCT-116 colon = test system: HCT-116 colon
ACHN renal = test system: ACHN renal
MCF7 breast = test system: MCF7 breast
HOP-62 NSCLC = test system: HOP-62 NSCLC
T-47D breast = test system: T-47D breast
UACC-257 melanoma = test system: UACC-257 melanoma
OVCAR-5 ovarian = test system: OVCAR-5 ovarian
RXF 393 renal = test system: RXF 393 renal
SR leukemia = test system: SR leukemia
NCI-H460 lung = test system: NCI-H460 lung
TK-10 renal = test system: TK-10 renal
HOP-92 NSCLC = test system: HOP-92 NSCLC
DU-145 prostate = test system: DU-145 prostate
SK-MEL-28 melanoma = test system: SK-MEL-28 melanoma
IGROV1 ovarian = test system: IGROV1 ovarian
SK-MEL-2 melanoma = test system: SK-MEL-2 melanoma
HCT-15 colon = test system: HCT-15 colon
SF-539 CNS = test system: SF-539 CNS
HL-60(TB) leukemia = test system: HL-60(TB) leukemia
SNB-75 CNS = test system: SNB-75 CNS

## CCP1(=O)N(CC(C)(C)C)C(c2ccccc2)CC(c2ccccc2)N1CC(C)(C)C (stereo not drawn)
COLO 205 colon
  GI50: 3.11 µM
  TGI: 7.86 µM
NCI-H322M lung
  GI50: 3.2 µM
  TGI: 8.85 µM
SNB-19 CNS
  GI50: 1.82 µM
  TGI: 3.55 µM
NCI-H23 lung
  GI50: 1.49 µM
  TGI: 3.6 µM
K-562 leukemia
  GI50: 2.78 µM
  TGI: 21.2 µM
A549 NSCLC
  GI50: 1.77 µM
  TGI: 4.2 µM
HT29 colon
  GI50: 2.89 µM
  TGI: 7.78 µM
MOLT-4 leukemia
  GI50: 2.54 µM
  TGI: 6.61 µM
OVCAR-4 ovarian
  GI50: 1.49 µM
  TGI: 3.88 µM
HS 578T breast
  GI50: 2.36 µM
  TGI: 7.08 µM
M14 melanoma
  GI50: 2.12 µM
  TGI: 4.92 µM
OVCAR-3 ovarian
  GI50: 4.12 µM
  TGI: 14.8 µM
LOX IMVI melanoma
  GI50: 2.39 µM
  TGI: 6.56 µM
CCRF-CEM leukemia
  GI50: 2.01 µM
  TGI: 4.73 µM
NCI-H226 lung
  GI50: 4.26 µM
  TGI: 10.8 µM
MDA-MB-231 breast
  GI50: 1.74 µM
  TGI: 3.42 µM
SF-268 CNS
  GI50: 4.03 µM
  TGI: 8.66 µM
SK-OV-3 ovarian
  GI50: 6.43 µM
  TGI: 19 µM
SF-295 CNS
  GI50: 3.07 µM
  TGI: 7.64 µM
MDA-MB-435
  GI50: 2.34 µM
  TGI: 5.89 µM
HCC-2998 colon
  GI50: 3.68 µM
  TGI: 9.22 µM
EKVX NSCLC
  GI50: 3.74 µM
  TGI: 10.2 µM
UACC-62 melanoma
  GI50: 2.85 µM
  TGI: 7.42 µM
SW-620 colon
  GI50: 4.47 µM
  TGI: 17.6 µM
BT-549 breast
  GI50: 1.8 µM
  TGI: 3.23 µM
CAKI-1 renal
  GI50: 2.23 µM
  TGI: 7.78 µM
PC-3 prostate
  GI50: 1.8 µM
  TGI: 3.55 µM
SK-MEL-5 melanoma
  GI50: 2.84 µM
  TGI: 7.83 µM
SN12C renal
  GI50: 3.22 µM
  TGI: 8.22 µM
KM12 colon
  GI50: 1.89 µM
  TGI: 4.67 µM
NCI-H522 lung
  GI50: 2.1 µM
  TGI: 5.52 µM
OVCAR-8 ovarian
  GI50: 2.85 µM
  TGI: 7.77 µM
U251 CNS
  GI50: 1.74 µM
  TGI: 3.16 µM
RPMI-8226 leukemia
  GI50: 1.7 µM
  TGI: 6.28 µM
A498 renal
  GI50: 2.17 µM
  TGI: 4.89 µM
UO-31 renal
  GI50: 1.94 µM
  TGI: 4.33 µM
MDA-N
  GI50: 3.22 µM
  TGI: 8.05 µM
786-0 renal
  GI50: 3.09 µM
  TGI: 8.28 µM
NCI/ADR-RES ovarian
  GI50: 1.92 µM
  TGI: 4.09 µM
HCT-116 colon
  GI50: 1.9 µM
  TGI: 4.99 µM
ACHN renal
  GI50: 2.46 µM
  TGI: 6.11 µM
MCF7 breast
  GI50: 1.92 µM
  TGI: 4.59 µM
HOP-62 NSCLC
  GI50: 4.24 µM
  TGI: 9.19 µM
T-47D breast
  GI50: 2.73 µM
  TGI: 9.6 µM
UACC-257 melanoma
  GI50: 3.9 µM
  TGI: 10.6 µM
OVCAR-5 ovarian
  GI50: 3.68 µM
  TGI: 9.38 µM
RXF 393 renal
  GI50: 2.46 µM
  TGI: 7.12 µM
SR leukemia
  GI50: 2.65 µM
  TGI: 8.57 µM
NCI-H460 lung
  GI50: 5.09 µM
  TGI: 20.2 µM
TK-10 renal
  GI50: 4.99 µM
  TGI: 15.2 µM
HOP-92 NSCLC
  GI50: 2.74 µM
  TGI: 7.78 µM
DU-145 prostate
  GI50: 3.46 µM
  TGI: 7.87 µM
SK-MEL-28 melanoma
  GI50: 1.95 µM
  TGI: 3.9 µM
IGROV1 ovarian
  GI50: 1.67 µM
  TGI: 3.19 µM
SK-MEL-2 melanoma
  GI50: 2.01 µM
  TGI: 3.84 µM
HCT-15 colon
  GI50: 2.03 µM
  TGI: 4.89 µM
SF-539 CNS
  GI50: 11.2 µM
  TGI: 35.3 µM
HL-60(TB) leukemia
  GI50: 1.88 µM
  TGI: 4.07 µM
SNB-75 CNS
  GI50: 3.03 µM
  TGI: 9.22 µM
